By UniProt entry, the sequences of proteins in these tests, tags left out.
UniProt P50052, whole entry: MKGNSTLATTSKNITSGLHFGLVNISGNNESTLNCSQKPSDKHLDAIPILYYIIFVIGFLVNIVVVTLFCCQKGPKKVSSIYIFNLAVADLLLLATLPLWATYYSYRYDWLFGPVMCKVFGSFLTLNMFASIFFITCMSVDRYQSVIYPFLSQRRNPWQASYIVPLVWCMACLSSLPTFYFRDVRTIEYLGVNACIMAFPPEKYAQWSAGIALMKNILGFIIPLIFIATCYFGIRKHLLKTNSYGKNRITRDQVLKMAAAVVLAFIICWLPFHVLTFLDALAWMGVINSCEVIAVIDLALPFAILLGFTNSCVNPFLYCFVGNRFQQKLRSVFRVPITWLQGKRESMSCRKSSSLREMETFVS

In patent US9624243B2, “Heterocyclic compounds and methods of their use” (Novartis AG, priority 2012, dated 2017):

Target: AT2 receptor (Homo sapiens (Human), UniProt P50052)
Test: AT2 Receptor Binding
Details: HEK293 AT2 receptor transient cell membranes, [125I]-CGP42112A

For `O=C(O)[C@@H]1C[C@H](N2CCC[C@H](Cc3ccccc3)C2)CN1C(=O)C(c1ccccc1)c1ccccc1`, the IC50 was 0.0503 µM.

Compound `O=C(O)[C@@H]1C[C@H](N2CCC[C@@H](Cc3ccccc3)C2)CN1C(=O)C(c1ccccc1)c1ccccc1` has an IC50 of 0.0632 µM.
